Literature values in patent US10550080B2 (BRISTOL-MYERS SQUIBB COMPANY, priority 2016, dated 2020).

Chains of the proteins cited; added tags and fusions are not shown.
UniProt Q15858, whole entry: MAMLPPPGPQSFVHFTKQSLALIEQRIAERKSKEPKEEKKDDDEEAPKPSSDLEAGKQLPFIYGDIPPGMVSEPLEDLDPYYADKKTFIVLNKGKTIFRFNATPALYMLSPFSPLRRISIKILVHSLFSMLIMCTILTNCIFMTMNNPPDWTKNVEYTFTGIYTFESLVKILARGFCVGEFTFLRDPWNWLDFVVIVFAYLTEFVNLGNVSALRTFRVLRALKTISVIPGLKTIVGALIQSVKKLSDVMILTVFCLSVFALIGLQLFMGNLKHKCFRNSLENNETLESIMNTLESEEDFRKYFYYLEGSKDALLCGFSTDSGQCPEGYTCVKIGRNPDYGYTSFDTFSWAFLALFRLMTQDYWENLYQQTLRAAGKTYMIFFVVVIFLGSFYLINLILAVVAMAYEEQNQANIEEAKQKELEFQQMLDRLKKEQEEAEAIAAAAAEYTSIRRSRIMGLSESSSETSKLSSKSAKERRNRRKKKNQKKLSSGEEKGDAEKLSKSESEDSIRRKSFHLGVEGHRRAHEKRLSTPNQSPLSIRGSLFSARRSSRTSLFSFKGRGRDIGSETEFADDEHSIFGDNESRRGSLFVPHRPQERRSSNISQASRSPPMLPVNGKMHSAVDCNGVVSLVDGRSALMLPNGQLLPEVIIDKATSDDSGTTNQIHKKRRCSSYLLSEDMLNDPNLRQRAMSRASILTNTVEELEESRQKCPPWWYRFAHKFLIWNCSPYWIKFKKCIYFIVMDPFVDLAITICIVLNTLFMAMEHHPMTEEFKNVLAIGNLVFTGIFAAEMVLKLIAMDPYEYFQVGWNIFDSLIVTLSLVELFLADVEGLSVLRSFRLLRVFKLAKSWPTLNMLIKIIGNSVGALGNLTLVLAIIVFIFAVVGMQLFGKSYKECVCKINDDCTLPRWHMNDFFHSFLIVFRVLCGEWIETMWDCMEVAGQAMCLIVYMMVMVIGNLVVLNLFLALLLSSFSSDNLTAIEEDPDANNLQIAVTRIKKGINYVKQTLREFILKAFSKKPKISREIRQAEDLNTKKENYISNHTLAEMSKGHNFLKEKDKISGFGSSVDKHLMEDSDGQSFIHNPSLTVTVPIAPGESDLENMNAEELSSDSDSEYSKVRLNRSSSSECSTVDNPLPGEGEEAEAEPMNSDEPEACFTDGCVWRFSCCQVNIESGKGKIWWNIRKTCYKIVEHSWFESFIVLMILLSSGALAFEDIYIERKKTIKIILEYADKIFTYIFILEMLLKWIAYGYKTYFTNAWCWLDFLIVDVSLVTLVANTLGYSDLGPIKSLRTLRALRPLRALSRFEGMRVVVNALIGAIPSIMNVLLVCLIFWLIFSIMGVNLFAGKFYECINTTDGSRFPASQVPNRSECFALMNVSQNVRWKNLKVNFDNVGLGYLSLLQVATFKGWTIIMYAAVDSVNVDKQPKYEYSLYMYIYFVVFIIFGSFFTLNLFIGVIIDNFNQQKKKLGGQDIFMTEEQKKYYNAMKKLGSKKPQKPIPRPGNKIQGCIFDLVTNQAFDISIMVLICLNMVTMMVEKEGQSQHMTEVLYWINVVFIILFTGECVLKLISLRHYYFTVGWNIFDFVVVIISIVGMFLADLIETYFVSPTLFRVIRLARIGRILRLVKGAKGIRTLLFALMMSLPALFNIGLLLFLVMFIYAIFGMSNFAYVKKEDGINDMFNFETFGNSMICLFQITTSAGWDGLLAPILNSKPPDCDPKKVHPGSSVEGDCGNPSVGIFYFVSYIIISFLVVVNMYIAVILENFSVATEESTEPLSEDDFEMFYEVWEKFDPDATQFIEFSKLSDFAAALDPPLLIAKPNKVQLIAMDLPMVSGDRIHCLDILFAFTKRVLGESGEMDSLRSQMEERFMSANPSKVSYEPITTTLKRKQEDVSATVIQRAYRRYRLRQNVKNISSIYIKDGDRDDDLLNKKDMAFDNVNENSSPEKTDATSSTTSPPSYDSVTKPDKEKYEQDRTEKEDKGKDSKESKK

Target: NaV1.7 (Homo sapiens (Human), UniProt Q15858)
Conditions: Schmalhofer et al. 2008; cited from earlier work

With ProTx-II as the substance, how does the “selective for NaV1.7 over other NaV channels” value read?
The value was “approximately 100 fold”.
